In assay [1] the test system is Xenopus laevis skin pigmentation. Conditions: 40 μmol/kg injected; for skin pigmentation lightening, systemic injection: dark-adapted frogs.
For assay [2] the test system is unchanged. To be noted: 1 mM in H2O applied to skin surface.
The target in assay [3] is T1, endogenous amphibian MSH-receptors (Xenopus laevis, UniProt A0A1L8GF34).
T1 sequence (A0A1L8GF34 1-317): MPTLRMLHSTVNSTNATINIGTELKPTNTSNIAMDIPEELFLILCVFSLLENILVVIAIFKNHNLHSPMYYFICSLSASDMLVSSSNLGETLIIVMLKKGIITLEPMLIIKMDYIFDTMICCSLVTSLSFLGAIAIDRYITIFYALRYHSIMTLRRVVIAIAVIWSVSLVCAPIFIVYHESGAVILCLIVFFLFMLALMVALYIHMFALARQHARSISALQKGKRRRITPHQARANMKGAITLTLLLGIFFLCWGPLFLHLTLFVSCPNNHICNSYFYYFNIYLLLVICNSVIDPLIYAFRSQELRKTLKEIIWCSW
The class given is cell-based. Here is the method:
Melanin dispersion responses were quantitated by measuring transmittance through a monolayer of cultured melanophores pretreated with 1 nM melatonin (Potenza, et. al., 1992, Anal Biochem. 206, 315-22) and curve fit with a logistic equation (De Lean et al., 1978, Am J. Physiol. 235, E97-E102).
Broken lines indicate 99% confidence level.
Each point represents the mean and SSD of four independent transmittance measurements. Ti=initial transmittance (2 min.). Tf=final transmittance (60 min.).
For dose-response studies all tripeptides were synthesized on Rink Amide MBHA resin 0.25 mmol scale using standard Fmoc chemistry. After synthesis, peptides were purified suing HPLC and reverse-phase chromatography on a C18 column. The dose-response curves were obtained by microtiter plate assays (Potenza et al, 1992, Pigment Cell Res. 5, 372-378). Melanophore cells (18,000/well) were plated on 96-well tissue culture plates (Falcon).

Read-outs that look alike come from different tables or passages of the source.

As for `CC(C)C[C@H](NC(=O)[C@H](CCCNC(=N)N)NC(=O)[C@H](N)Cc1c[nH]c2ccccc12)C(N)=O` [A1, D-Trp-Arg-Leu-NH2], the “time to lightening after injection” value in assay [1] is recorded as not above 20 min. Further, the “skin pigmentation lightening, systemic injection” value in assay [1] (listed as DWRL) was “lightening of skin pigmentation on the entire body surface”; in assay [1] (listed as dWRL), “complete lightening”. Further, the “skin pigmentation lightening, topical” value in assay [2] (listed as DWRL) was “local lightening of pigmentation to “albino like” levels”; in assay [2] (listed as dWRL), “lightened albino-like skin tone”. Moreover, the “slope of the Schild regression” value in assay [3] amounted to 1.6±0.03.

Values taken from patent US6602856B1, “Antagonists of alpha-melanocyte stimulating hormone and methods based thereon” (priority 1995, dated 2003).
